Here are results for 2 molecules from patent publication US20030114529A1, “Hydroxamic acid thrombospondin peptide analog that inhibits aggrecanase activity” (priority 2001, published 2003).

Amino acid sequences for entries named in this document (tags omitted). Residues count along the entry.
UniProt P08254, 100-477 limits assumed: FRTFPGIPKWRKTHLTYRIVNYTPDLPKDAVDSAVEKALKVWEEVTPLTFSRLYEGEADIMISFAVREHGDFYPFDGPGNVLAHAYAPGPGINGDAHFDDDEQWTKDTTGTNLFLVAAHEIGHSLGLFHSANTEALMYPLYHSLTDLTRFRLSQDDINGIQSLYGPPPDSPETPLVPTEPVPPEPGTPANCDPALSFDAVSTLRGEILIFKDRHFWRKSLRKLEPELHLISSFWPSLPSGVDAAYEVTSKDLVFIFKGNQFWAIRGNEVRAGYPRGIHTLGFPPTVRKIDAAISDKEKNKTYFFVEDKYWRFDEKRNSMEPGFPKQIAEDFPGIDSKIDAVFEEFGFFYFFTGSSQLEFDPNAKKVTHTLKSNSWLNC

The subject of assay [1] is ADAMTS-4/ADAMTS-5 (aggrecanase). In words: Inhibition of aggrecan cleavage at Glu1480-Gly1481 by recombinant ADAMTS-4/ADAMTS-5 (Western blot, densitometry). The settings on record: read-out: Apparent Ki aggrecanase ADAM-TS4/5. In general terms: In western blotting, separated proteins are transferred to a membrane and probed.
The target in another assay is stromelysin MMP-3 (Homo sapiens, UniProt P08254). The experiment in a line: Inhibition of stromelysin MMP-3 by hydroxamic acids. As to conditions: read-out: Apparent Ki stromelysin MMP-3. The format is biochemical.
Assay [2] has as its system Pig articular cartilage explants. In words: IL-1 induced aggrecan degradation in pig articular cartilage explants (GAG release, DMMB assay). As to conditions: read-out: Articular Cartilage (IC50, GAG release), IL-1α, 72 hours, inhibitor 0.1 to 10 μM.

Read-outs that look alike come from different tables or passages of the source.

Take `CNC(=O)[C@H](CC(C)C)NC(=O)[C@@H](CC(=O)NO)CC(C)C`: the Ki in assay [1] is 38 nM; at stromelysin MMP-3, 73 nM. The IC50 (in general, the midpoint of a concentration-inhibition curve) in assay [2] stood at 1890 nM.
For the molecule `CNC(=O)C1CCCNN1C(=O)C(CC(C)C)C(C)C(=O)NO` (stereo not drawn), the Ki in assay [1] (aggrecan 500 nM, enzyme 5 nM, 2 hours, 37° C., Ki = IC50/(1 + [S]/Km)) was more than 10000 nM; on stromelysin MMP-3 it was 12 nM. The IC50 in assay [2] is more than 10000 nM.
